# From PubChem BioAssay
# Yeast UUG start – modulators of yeast start codon fidelity, primary screen, whole organism, S. cerevisiae, single point, plate reader; S. cerevisiae UUG-firefly luciferase reporter, luminescence/redox ratio; activity score, % at 18.7 µM; actives 0.13% (n = 350,000); AID 602363, 2012;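 active = replicate mean at a twofold rise or more, about +100% in these data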;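 also: firefly luciferase made from a UUG start codon reports start codon fidelity; reporter light over untreated wells divided by growth signal over untreated wells; some hits fall short of that in this replicate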
# miR122 inh – miR-122 Renilla sensor signal increase in Huh7, primary screen, miR-122 inhibitor project, cell-based, single point, plate reader; Huh7 miR-122 Renilla luciferase sensor, 48 h; neutral wells = 0, positive control = 100; activation (reporter increase), % at 12.5 µM; 340,000 tested, 0.3% active;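 active = mean replicate activation score at least 90 and every replicate individually at or above 90; inconclusive = only one of the two criteria met; inactive = neither criterion met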;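 also: higher luciferase means less miR-122 activity so hits act as miR-122 inhibitors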
# Cneo AK release – Cryptococcus neoformans cell lysis inducers, primary screen, AK release luminescence, single concentration; C. neoformans lysis, adenylate kinase release luminescence, 4 h; normalised: neutral wells 0, clomiphene wells 100; lysis activity, % at 15 µM; 360,000 tested, 0.2% active;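 active = mean lysis activity across replicates of at least 80%, whatever share of replicates individually reach that level; inactive = mean lysis activity below 80%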
#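 Schedule: static 4 h at 37 °C with compound, 1 h detection; system: C. neoformans cells; benchmarks: Clomiphene as positive control; buffer or medium: fresh YPD medium; measure: luminescence rise reflecting yeast cell lysis; measured by: luminescent adenylate kinase detection reagent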
# Statin myotox sup – suppressors of statin myotoxicity in C2C12 myotubes, primary screen, cell-based, single point, plate reader | C2C12 myotubes + simvastatin, ATP luminescence, 48 h; scaled: DMSO 0, geranylgeraniol control 100 | rescue of ATP level, % at 7.49 µM | 330,000 tested, 0.78% active | AID 602340, 2012;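 active = mean ATP rescue above about 67%, or every replicate alone reaching that limit, limit read from the data, passing the limit was not always enough; inconclusive = no clear call, values can overlap the other calls; inactive = mean under the limit and some replicate under it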;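 also: myotubes were challenged with 10 µM simvastatin during compound exposure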
# * hit, by the source's call; ? = inconclusive; . = not tested or not shown; [ ] = remark or other dose. The list is not random: actives were taken first. Their share in the collection is about 1.2%.
1. CCC(=O)N[C@H]1CC[C@@H](CCn2cc(-c3cccc(OC)c3)nn2)O[C@H]1CO
2. CO[C@H]1CN(C)C(=O)c2ccc(NS(=O)(=O)c3cn(C)cn3)cc2OC[C@H](C)N(CC2CC2)C[C@H]1C
3. CCOC(=O)/C=c1\s/c(=C\c2ccc3c(c2)OCCO3)c(=O)n1CC(=O)NCC1CCCO1 (centres undefined)
4. CCOC(=O)/C=c1\s/c(=C\c2c(OCC)ccc3ccccc23)c(=O)n1CC(=O)NCC1CCCO1 (centres undefined)
5. C[C@@H]1CN([C@@H](C)CO)C(=O)c2cc(NS(=O)(=O)c3ccc(Cl)cc3)ccc2O[C@@H](C)CCCCO[C@@H]1CN(C)C(=O)Nc1cccc2ccccc12
6. C[C@@H]1CCCCO[C@H](CN(C)C(=O)Nc2cccc3ccccc23)[C@@H](C)CN([C@H](C)CO)C(=O)c2cc(NS(=O)(=O)c3ccc(Cl)cc3)ccc2O1
7. C[C@@H]1CCCCO[C@@H](CN(C)C(=O)Nc2cccc3ccccc23)[C@H](C)CN([C@H](C)CO)C(=O)c2cc(NS(=O)(=O)c3ccc(Cl)cc3)ccc2O1
8. C[C@H](CO)N1C[C@H](C)[C@@H](CN(C)C(=O)Nc2cccc3ccccc23)OCCCC[C@H](C)Oc2ccc(NS(=O)(=O)c3ccc(Cl)cc3)cc2C1=O

entry no. | 1 | 2 | 3 | 4 | 5 | 6 | 7 | 8
Yeast UUG start | 1 | -1 | 54 | . | 3 | -4 | -9 | -18
miR122 inh | . | . | 2 | 1 | 14[16.7 µM] | -15[16.7 µM] | 2[16.7 µM] | -9[16.7 µM]
Cneo AK release | 0 | -14 | -2 | . | -3 | -3 | -6 | 0
Statin myotox sup | 2 | 1 | 110* | . | 142* | 53 | 87* | ?

9. C[C@H](CO)N1C[C@H](C)[C@H](CN(C)C(=O)Nc2cccc3ccccc23)OCCCC[C@H](C)Oc2ccc(NS(=O)(=O)c3ccc(Cl)cc3)cc2C1=O
10. C[C@@H]1CN([C@H](C)CO)C(=O)c2cc(NS(=O)(=O)c3ccc(Cl)cc3)ccc2O[C@@H](C)CCCCO[C@@H]1CN(C)C(=O)c1ccncc1
11. C[C@H]1CN([C@@H](C)CO)C(=O)Cc2cc(NS(=O)(=O)c3ccc(F)cc3)ccc2O[C@@H]1CN(C)CC1CCCCC1
12. COc1ccc(CN(C)C[C@@H]2Oc3ccc(NC(=O)NC4CCCCC4)cc3CC(=O)N([C@H](C)CO)C[C@@H]2C)cc1
13. COc1ccc(NC(=O)N(C)C[C@H]2Oc3ccc(NS(C)(=O)=O)cc3C(=O)N([C@@H](C)CO)C[C@@H]2C)cc1
14. CSc1cc(-c2ccc(Cl)cc2)c(C(=O)NN)s1
15. CSc1cc(-c2ccc(Cl)cc2)c(C(=O)NC(C)C)s1
16. Cc1cccc2sc(NC(=O)CN(C)S(=O)(=O)c3ccc(Br)s3)nc12

entry no. | 9 | 10 | 11 | 12 | 13 | 14 | 15 | 16
Yeast UUG start | -9 | 7 | 27 | . | -32 | -7 | -24 | -10
miR122 inh | -8[16.7 µM] | -4[16.7 µM] | -7[16.7 µM] | 1[16.7 µM] | -1[16.7 µM] | -1 | 1 | -1
Cneo AK release | -2 | -1 | 0 | -3 | 4 | 1 | 0 | 0
Statin myotox sup | 135* | . | 64 | -37 | -1 | -7 | 130* | 100*

# Part of the list above in order of molar mass, rising:
15. CSc1cc(-c2ccc(Cl)cc2)c(C(=O)NC(C)C)s1
12. COc1ccc(CN(C)C[C@@H]2Oc3ccc(NC(=O)NC4CCCCC4)cc3CC(=O)N([C@H](C)CO)C[C@@H]2C)cc1
10. C[C@@H]1CN([C@H](C)CO)C(=O)c2cc(NS(=O)(=O)c3ccc(Cl)cc3)ccc2O[C@@H](C)CCCCO[C@@H]1CN(C)C(=O)c1ccncc1

entry no. | 15 | 12 | 10
Yeast UUG start | -24 | . | 7
miR122 inh | 1 | 1[16.7 µM] | -4[16.7 µM]
Cneo AK release | 0 | -3 | -1
Statin myotox sup | 130* | -37 | .

# (continued)
17. O=C(C[C@H]1C[C@@H]2c3cc(NC(=O)c4cccnc4)ccc3O[C@@H]2[C@@H](CO)O1)NCCc1ccccc1
18. COCCNC(=O)C[C@@H]1C[C@H]2c3cc(NC(=O)C4CCOCC4)ccc3O[C@H]2[C@@H](CO)O1
19. COCCNC(=O)C[C@@H]1C[C@@H]2c3cc(NC(=O)C4CCOCC4)ccc3O[C@@H]2[C@@H](CO)O1
20. COCCNC(=O)C[C@H]1C[C@@H]2c3cc(NC(=O)C4CCC4)ccc3O[C@@H]2[C@H](CO)O1
21. O=C(C[C@@H]1C[C@H]2c3cc(NC(=O)c4cccnc4)ccc3O[C@H]2[C@@H](CO)O1)NCCc1ccccc1
22. Cc1nc(S(=O)(=O)N2CCN(Cc3ccc(OCCO)cc3)CC2)cn1C
23. C[C@@H]1CN([C@H](C)CO)C(=O)c2cc(-c3ccccc3)cnc2O[C@H]1CN(C)C(=O)Cc1ccccc1
24. C[C@@H]1CN([C@H](C)CO)C(=O)Cc2cc(NC(=O)Cc3ccccc3)ccc2O[C@@H]1CN(C)Cc1ccc(C(F)(F)F)cc1

entry no. | 17 | 18 | 19 | 20 | 21 | 22 | 23 | 24
Yeast UUG start | . | -9 | 12 | 25 | . | 4 | -5 | .
miR122 inh | 10[16.7 µM] | 0[16.7 µM] | 32[16.7 µM] | 43[16.7 µM] | -3[16.7 µM] | . | -1[16.7 µM] | -15[16.7 µM]
Cneo AK release | 81* | 1 | 98* | 103* | 11 | 10 | 5 | 8
Statin myotox sup | -3 | 4 | 0 | -6 | -4 | . | 10 | 4

25. O=C(CN(C1CCCCC1)S(=O)(=O)c1ccc(F)cc1)Nc1ccc2c(c1)OCO2
26. CC(C(=O)NC(=O)NCc1ccccc1)N1C(=O)c2ccccc2C1=O (centres undefined)
27. CC(C(=O)NCc1ccccc1)N1C(=O)CN(C)C(=O)c2ccccc21 (centres undefined)
28. C[C@H](CO)N1C[C@H](C)[C@@H](CN(C)C(=O)Nc2ccc(F)cc2)Oc2cc(/C=C/c3ccccc3)ccc2S1(=O)=O
29. Cc1noc(C)c1NC(=O)N(C)C[C@H]1OCCCC[C@H](C)Oc2ccc(NC(=O)CCC(F)(F)F)cc2C(=O)N([C@@H](C)CO)C[C@H]1C
30. COc1ccccc1-c1nnc(SCC(=O)NC2CCCCC2)o1
31. Cc1ccccc1-c1nnc(SCC(=O)NC2CCCCC2)o1
32. C[C@@H]1CN([C@H](C)CO)S(=O)(=O)c2ccc(Br)cc2O[C@H]1CN(C)C(=O)c1cnccn1

entry no. | 25 | 26 | 27 | 28 | 29 | 30 | 31 | 32
Yeast UUG start | -6 | -16 | -13 | -10 | -5 | -14 | . | -5
miR122 inh | 247* | -5 | -6 | -3[16.7 µM] | 3[16.7 µM] | 1 | 4 | -3[16.7 µM]
Cneo AK release | 0 | -4 | 1 | -11 | -2 | 1 | . | -4
Statin myotox sup | 22 | 96* | 89* | 21 | . | 7 | 78* | 1

33. COCC(=O)Nc1ccc2c(c1)[C@H]1C[C@H](CC(=O)N3CCc4ccccc4C3)O[C@H](CO)[C@H]1O2
34. CO[C@H]1CN(C)C(=O)c2cc(NC(=O)C3CCOCC3)ccc2OC[C@@H](C)NC[C@H]1C
35. CO[C@@H]1CN(C)C(=O)c2cc(NC(=O)C3CCOCC3)ccc2OC[C@H](C)NC[C@@H]1C
36. CO[C@@H]1CN(C)C(=O)c2cc(NC(=O)C3CCOCC3)ccc2OC[C@H](C)NC[C@H]1C
37. C[C@@H]1CCCCO[C@H](CN(C)C(=O)c2ccccc2)[C@@H](C)CN([C@@H](C)CO)C(=O)c2cc(NC(=O)c3ccccc3)ccc2O1
38. C[C@@H]1CN([C@H](C)CO)C(=O)c2cc(NC(=O)CCC(F)(F)F)ccc2O[C@@H](C)CCCCO[C@@H]1CN(C)C(=O)c1ccncc1
39. C[C@H]1CCCCO[C@@H](CN(C)C(=O)c2ccccc2)[C@@H](C)CN([C@@H](C)CO)C(=O)c2cc(NC(=O)c3ccncc3)ccc2O1
40. C[C@@H]1CCCCO[C@@H](CN(C)C(=O)c2ccccc2)[C@@H](C)CN([C@H](C)CO)C(=O)c2cc(NC(=O)c3ccccc3)ccc2O1

entry no. | 33 | 34 | 35 | 36 | 37 | 38 | 39 | 40
Yeast UUG start | 0 | 16 | 22 | -6 | . | 9 | 22 | .
miR122 inh | 4[16.7 µM] | 44[16.7 µM] | 37[16.7 µM] | 9[16.7 µM] | 3[16.7 µM] | 15[16.7 µM] | 51[16.7 µM] | 4[16.7 µM]
Cneo AK release | -7 | 107* | 102* | 2 | 96* | 89* | 86* | -1
Statin myotox sup | -7 | -8 | -1 | 9 | . | . | -16 | .
